In this experiment the test system is conversion of stem cells into insulin producing cells. It is filed as cell-based. To be noted: statistical analysis of insulin content of supernatants, 3 donors, combinatorial array in alginate.

B1: BMP-2: Bone Morphogenic Protein (protein, UniProt P12643 283-396, looked up)
Bone morphogenetic protein 2: QAKHKQRKRLKSSCKRHPLYVDFSDVGWNDWIVAPPGYHAFYCHGECPFPLADHLNSTNHAIVQTLVNSVNSKIPKACCVPTELSAISMLYLDENEKVVLKNYQDMVVEGCGCR
As to B1, the “effect on the conversion of stem cells into insulin producing cells” value is reported as “potential positive effect”.

For the origin of these results see US20040259244A1, “Methods, compositions, and growth and differentiation factors for insulin-producing cells” (priority 2002, published 2004).
